Columns and labels:
Aurora-B = target: T1, Aurora-B (Homo sapiens, UniProt Q96GD4); experiment: Cell-free kinase assay (ALPHA technology), Aurora-B; type: biochemical; conditions: Aurora-B versus the other kinases, in words
T1 construct: in some cases as full-length kinases, in some cases as truncated fragments; purchased Upstate/Millipore #14-835
Description: Aurora-B assay: […] The kinase reaction was stopped by adding 10 μl of the ALPHA bead mix (10 μg/ml, #6760617/PerkinElmer), pre-incubated with anti-phospho PLK antibody (100 pM, #5070, Cell Signaling), in 25 mM Tris, 200 mM NaCl, 100 mM EDTA and 0.3% BSA, and left to stand overnight. The luminiscence was detected the next morning in a Envision instrument (Perkin Elmer). […] 0% controls contained no ATP whereas the 100% controls contained no test substance. The IC50 values were determined with GraphPadPrism.

Amino acid sequences for entries named in this document (tags omitted). Residues count along the entry.
UniProt Q96GD4, whole entry: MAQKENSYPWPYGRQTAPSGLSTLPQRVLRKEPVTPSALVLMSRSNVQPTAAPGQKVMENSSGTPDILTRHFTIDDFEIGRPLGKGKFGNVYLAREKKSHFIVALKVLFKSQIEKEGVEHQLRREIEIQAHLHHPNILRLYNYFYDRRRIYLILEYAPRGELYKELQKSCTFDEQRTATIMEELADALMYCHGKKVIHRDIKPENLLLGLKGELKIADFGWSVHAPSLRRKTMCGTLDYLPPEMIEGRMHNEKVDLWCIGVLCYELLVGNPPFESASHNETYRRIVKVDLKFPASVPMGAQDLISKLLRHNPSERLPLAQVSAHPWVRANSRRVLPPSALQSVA
UniProt P28482, whole entry: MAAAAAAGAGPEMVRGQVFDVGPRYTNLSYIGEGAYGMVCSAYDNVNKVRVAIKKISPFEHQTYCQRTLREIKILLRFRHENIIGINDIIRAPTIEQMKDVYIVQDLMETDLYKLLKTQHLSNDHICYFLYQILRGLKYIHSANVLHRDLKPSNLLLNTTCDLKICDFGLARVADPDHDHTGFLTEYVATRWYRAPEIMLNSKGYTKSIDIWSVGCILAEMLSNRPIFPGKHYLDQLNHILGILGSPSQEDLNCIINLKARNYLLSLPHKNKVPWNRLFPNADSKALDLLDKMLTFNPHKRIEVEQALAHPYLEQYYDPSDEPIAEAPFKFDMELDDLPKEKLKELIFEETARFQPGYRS
UniProt P28482, 2-360: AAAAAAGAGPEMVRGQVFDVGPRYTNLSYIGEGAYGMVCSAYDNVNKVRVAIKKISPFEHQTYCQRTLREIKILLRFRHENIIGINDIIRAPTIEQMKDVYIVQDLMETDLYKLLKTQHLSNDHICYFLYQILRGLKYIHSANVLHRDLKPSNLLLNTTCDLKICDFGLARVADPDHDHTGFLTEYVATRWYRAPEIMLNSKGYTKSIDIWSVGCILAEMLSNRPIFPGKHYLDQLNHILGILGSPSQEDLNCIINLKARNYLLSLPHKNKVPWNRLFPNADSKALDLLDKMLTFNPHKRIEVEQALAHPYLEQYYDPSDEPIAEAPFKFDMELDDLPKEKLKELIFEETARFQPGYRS

Erk2 = target: T2, Erk2 (Homo sapiens, UniProt P28482); experiment: Cell-free kinase assay (ALPHA technology), Erk2; type: biochemical; conditions: at 10 μM ATP
T2 construct: in some cases as full-length kinases, in some cases as truncated fragments
Description: Recombinant human kinases, for example Aurora-B, cRaf-Mek1-Erk2, Erk2, Pim-1, HIPK1, KDR, TrkA, Yes, c-Abl and others were used, in some cases as full-length kinases, in some cases as truncated fragments—but at least consisting of the functional kinase domains.
(§1) The controls were determined 16 fold. 0% controls contained no ATP whereas the 100% controls contained no test substance. The IC50 values were determined with GraphPadPrism.

cRaf-Mek1-Erk2 = cRaf-Mek1-Erk2 (Homo sapiens, UniProt P04049+P28482+Q02750); conditions: read-out: IC50 cRaf-Mek-Erk; at 10 μM ATP
Description: The inhibitory effect of the inventive compounds was tested on various human serine/threonine kinases and tyrosine kinases in enzymatic assays. Recombinant human kinases, for example Aurora-B, cRaf-Mek1-Erk2, Erk2, Pim-1, HIPK1, KDR, TrkA, Yes, c-Abl and others were used, in some cases as full-length kinases, in some cases as truncated fragments—but at least consisting of the functional kinase domains. The commercial kinase proteins (Proqinase, Millipore) were used as recombinant fusion proteins with GST (glutathione S-transferase) tag or His tag. Depending on the substrate type, the different kinase reactions were quantified by suitable ALPHA™ beads (PerkinElmer).
The calculation of % inhibition values per substance concentration was done by means of the following formula from the raw data determined in the Envision reader:
as §1

In the case of `CCCNC(=O)Nc1ccnc2cc(-c3cnn(C)c3)cnc12` [Compound 19, 1-[7-(1-Methyl-1H-pyrazol-4-yl)-[1,5]naphthyridin-4-yl]-3-propyl-urea], the “selectivity against the other kinases” value (Aurora-B) is reported as “high selectivity”.

For `CCNC(=O)Nc1ccc2ncc(-c3ccc(OC)cc3)cc2n1` [Compound 1, 1-Ethyl-3-[7-(4-methoxy-phenyl)-[1,5]naphthyridin-2-yl]urea], the IC50 (Erk2) was 1130 nM and the IC50 (cRaf-Mek1-Erk2) was 1550 nM.

For `Cn1cc(-c2cnc3c(NC(=O)NC4CCC4)ccnc3c2)cn1` [Compound 17, 1-Cyclobutyl-3-[7-(1-methyl-1H-pyrazol-4-yl)-[1,5]naphthyridin-4-yl]-urea], the “selectivity against the other kinases” value (Aurora-B) was “high selectivity”.

`CCNC(=O)Nc1ccc2ncc(-c3ccc(OC)c(OC)c3)cc2n1` [Compound 2, 1-[7-(3,4-Dimethoxy-phenyl)-[1,5]naphthyridin-2-yl]-3-ethyl-urea] was tested, and the IC50 (Erk2) was 742 nM and the IC50 (cRaf-Mek1-Erk2) was 621 nM.

For `CCNC(=O)Nc1ccnc2cc(-c3cnn(C)c3)cnc12` [Compound 10, 1-Ethyl-3-[7-(1-methyl-1H-pyrazol-4-yl)-[1,5]naphthyridin-4-yl]-urea], the “selectivity against the other kinases” value (Aurora-B) was “high selectivity”.

`Cn1cc(-c2cnc3ccc(NC(=O)NCc4ccccc4)nc3c2)cn1` [Compound 28, 1-Benzyl-3-[7-(1-methyl-1H-pyrazol-4-yl)-[1,5]naphthyridin-2-yl]-urea] gave an IC50 (Erk2) of 3 nM and an IC50 (cRaf-Mek1-Erk2) of 5 nM.

`Cn1cc(-c2cnc3c(NC(=O)NC4CC4)ccnc3c2)cn1` [Compound 18, 1-Cyclopropyl-3-[7-(1-methyl-1H-pyrazol-4-yl)-[1,5]naphthyridin-4-yl]-urea] was tested, and the “selectivity against the other kinases” value (Aurora-B) was “high selectivity”.

`O=C(Nc1ccnc2cc(-c3cnn(CCN4CCOCC4)c3)cnc12)NC1CC1` [Compound 38, 1-Cyclopropyl-3-{7-[1-(2-morpholin-4-yl-ethyl)-1H-pyrazol-4-yl]-[1,5]naphthyridin-4-yl}-urea] was tested, and the “selectivity against the other kinases” value (Aurora-B) was “high selectivity”.

`COc1cc(-c2cnc3ccc(NC(=O)NC(C)(C)C)nc3c2)ccc1O` [Compound 4, 1-tert-Butyl-3-[7-(4-hydroxy-3-methoxy-phenyl)-[1,5]naphthyridin-2-yl]-urea] was tested, and the IC50 (Erk2) was 702 nM and the IC50 (cRaf-Mek1-Erk2) was 339 nM.

Reference: US8461178B2, “Naphthyridine derivatives and the use thereof as kinase inhibitors” (Aeterna Zentaris GmbH, priority 2009, dated 2013)
